The results in this text go back to article PMC4375888.

This assay deals with actin (Mg-ATP-actin, chicken muscle; 33% atto488-labelled) (chicken) (UniProt P68139).

For “Dd VASP ΔGAB (VASP(delta198-220)) (from UniProt Q5TJ65 1-380) (natural protein)”, the decrease in the persistence length of filaments (held by low-density NEM-myosin) with VASP ΔGAB in solution came out at 50%.

Regarding filamin, the decrease in the persistence length of filaments (held by low-density NEM-myosin) with filamin in solution is 30%.

In the case of “Dd VASP (MBP-VASP, full-length) (from UniProt Q5TJ65 1-380) (natural protein)”, the decrease in the persistence length of filaments (held by low-density NEM-myosin) with VASP in solution came to 50%.

On to “NEM-myosin (chemically inactivated myosin II motor protein) (complex)”, for which the decrease in the persistence length of filaments (held by low-density NEM-myosin) with NEM-myosin in solution turned out to be 30%.
